# Assays:
# [1] = system: ALK and phospho-ALK Tyr 1604; experiment: Western blots of ALK and phospho-ALK, SY5Y; settings: 72 hours
# [2] = system: cell surface ALK; experiment: Flow cytometry of cell surface ALK, SY5Y; format: cell-based, human; settings: 1000 nM
# [3] = system: NSCLC patients harboring ALK translocations; settings: cited from earlier work
# [4] = system: ALK phosphorylation; settings: NB1643 xenografts, 2 days of administration, 4 hours after last oral dose
# [5] = system: ALK tyr1604 phosphorylation; experiment: In vitro phosphoprotein detection (immunoblot), phospho-ALK; settings: 2 hours with drug
compound,measurement,setting,value
"C[C@@H](Oc1cc(-c2cnn(C3CCNCC3)c2)cnc1N)c1c(Cl)ccc(F)c1Cl [PF-02341066, crizotinib]",Total ALK levels,[1]; 1000 nM crizotinib alone or with ALK antibody,Increases in total ALK levels
same,Levels of phosphorylated ALK,[1]; 1000 nM crizotinib alone or with antibody,substantially diminished
same,Time post-treatment at which up-regulation of cell surface ALK was first evident,[2],approximately 8 hours
same,Tumor response in patients,[3],remarkable tumor regression
same,ALK phosphorylation in xenograft protein lysates,[4],inhibition of ALK phosphorylation
same,Dose at which abrogation of phospho-ALK occurred,[5]; NB1 (WT amplification),33 to 100 nM
same,Dose at which abrogation of phospho-ALK occurred,[5]; NB1643 (R1275Q),33 to 100 nM

# Source: patent US10722578B2, “Methods and compositions for treating neuroblastoma” (The Children's Hospital of Philadelphia, priority 2008, dated 2020)
